{
  "source": "patent US20050085528A1",
  "about": "(priority 2003, published 2005)",
  "data": [
    {"tested_on": "cholesterol biosynthesis in replicon cells", "experiment": "cells", "details": "72 h, read-out: Cholesterol IC50", "units": {"IC50": "nM"}, "values": [
      {"smiles": "CC[C@H](C)C(=O)O[C@H]1C[C@@H](C)C=C2C=C[C@H](C)[C@H](CC[C@@H]3C[C@@H](O)CC(=O)O3)[C@H]21", "note": "[Lovastatin]", "IC50": 3300},
      {"smiles": "CC(C)c1c(C(=O)Nc2ccccc2)c(-c2ccccc2)c(-c2ccc(F)cc2)n1CC[C@@H](O)C[C@@H](O)CC(=O)O", "note": "(relative stereo) [Atorvastatin, [R-(R*,R*)]-2-(4-fluorophenyl)-b,d-dihydroxy-5-(1-methylethyl)-3-phenyl-4[(phenylamino)carbonyl]-IH-pyrrole-1-heptanoic acid]", "IC50": 600},
      {"smiles": "COCc1c(C(C)C)nc(C(C)C)c(/C=C/[C@@H](O)C[C@@H](O)CC(=O)O)c1-c1ccc(F)cc1", "note": "[Cerivastatin]", "IC50": 100},
      {"smiles": "CC[C@H](C)C(=O)O[C@H]1C[C@H](O)C=C2C=C[C@H](C)[C@H](CC[C@@H](O)C[C@@H](O)CC(=O)O)[C@H]21", "note": "[Pravastatin]", "IC50": 17500},
      {"smiles": "CCC(C)(C)C(=O)O[C@H]1C[C@@H](C)C=C2C=C[C@H](C)[C@H](CC[C@@H]3C[C@@H](O)CC(=O)O3)[C@H]21", "note": "[Simvastatin]", "IC50": 1000}
    ]},
    {"tested_on": "cholesterol biosynthesis in replicon cells", "experiment": "not given", "details": "added individually, FIG. 6b", "values": [
      {"smiles": "CC[C@H](C)C(=O)O[C@H]1C[C@@H](C)C=C2C=C[C@H](C)[C@H](CC[C@@H]3C[C@@H](O)CC(=O)O3)[C@H]21", "note": "[Lovastatin]", "Effect on cholesterol levels (amount of cholesterol synthesised)": "reduce cholesterol levels"}
    ]}
  ]
}
